For this data set the following is noted: spermine alginate microcapsules, 5 water washes, absorbance after dissolving microcapsules with sodium chloride.

The values below come from patent US6531156B1, “Aqueous solven encapsulation method, apparatus and microcapsules” (Temple University, priority 1994, dated 2003).

As for blue dextran, the “initial amount of core material retained in the microcapsules during the repeated washings” value was “more than half”.
